Entries after “also recorded” stand apart in the source; their conditions may differ.
What was measured:
[1] = tested on: BAF-BO3 cells transfected with pRcCMV-IL-2Rβ; experiment: [3H]-TdR proliferation assay, BAF-BO3 cells expressing human IL-2Rβ; assay type: cell-based, murine; conditions: cells expressing wild-type human IL-2Rβ subunit
Method: The BAF-BO3 cell line is an IL-3-dependent, murine pro-B cell line. A BAF-BO3 cell line that was pre-selected for high expression of the IL-2Rα subunit was kindly provided by T. Taniguchi (Osaka, Japan; Hatakeyama et al., Cell 59:837, 1989). BAF-BO3 cells were transfected with vector control (pRcCMV-0) or cDNA encoding the human IL-2Rβ subunit cloned into pRcCMV (pRcCMV-IL-2Rβ), by electroporation at 350 volts and 500 μFarads using 20 μg of ScaI linearized plasmid. Transfected cells were selected in the presence of 1 mg/ml G418 and tested for the expression of the IL-2Rβ subunit by fluorescence activated cell sorting (FACS) analysis as described (Maslinski et al., Int. Immunol. 4:509, 1992; Hataleyama et al., Cell 59:837, 1989).
IL-3 dependent BAF-BO3 cells, which constitutively express the IL-2Rγ subunit, were transfected with a control pRcCMV construct (pRcCMV-0) or a pRcCMV construct containing cDNA encoding the full-length human IL-2Rβ_subunit and the neo^r gene (pRcCMV-IL-2Rβ). G418 resistant clones were then selected. Cells that were selected in this way were used to test the biological activity of FLAG-HMK-IL-15. […] The BAF-BO3 cells were then harvested and cell-associated radioactivity was measured by scintillation counting as described above. […]

[2] = tested on: IL-2Rαγ+ BAF-BO3 cells that express mutant S− IL-2Rβ subunit; experiment: Proliferation assay, BAF-BO3 cells expressing mutant S− IL-2Rβ subunit; assay type: cell-based, murine; conditions: IL-2Rβ lacking serine-rich region (S−), 38 hours
Method: FIGS. 12A and 12B is a pair of graphs depicting the proliferative response of BAF-BO3 cells that express the wild-type IL-2Rβ subunit (WT, ▴ - - - ▴), the mutant IL-2Rβ subunit that lacks serine-rich region S^−, ▪ - - - ▪), or a control vector (V, ● - - - ●). The cells were incubated with IL-2 (upper graph) or IL-15 (lower graph) for 38 hours and a standard proliferation assay was performed. Error bars indicate the mean±standard deviation.
The hypothesis that elements of the IL-2Rβ chain that are required for IL-2 signal transduction are also required for IL-15 signal transduction was tested. […] Therefore, the ability of IL-15 to induce the proliferation of IL-2Rαγ^+BAF-BO3 cells that express either the wild-type IL-2Rβ subunit or a mutant IL-2Rβ protein that lacks the serine rich region (S^−).

[3] = tested on: PHA-activated human PBMCs; experiment: [3H]-TdR proliferation assay, PHA-activated human PBMCs; assay type: cell-based; conditions: PHA-activated PBMCs re-stimulated with reagent
Method: Peripheral blood mononuclear cells (1×10^6/ml) were stimulated with PHA (2 μg/ml) for 72 hours at 37° C. in RPMI-1640 medium supplemented with 10% FCS, penicillin, and streptomycin, as described above.
In the next series of experiments, the FLAG-HMK-IL-15 fusion protein was tested in order to determine whether it could function as a biologically active growth factor. […] Thus, FLAG-HMK-IL-15 is a biologically active growth factor that requires expression of IL-2Rβ chains upon target cells in order to stimulate cellular proliferation.

Q: For “IL-2: recombinant human IL-2 obtained from Hoffman-La Roche”, which “cell proliferation ([3H]-TdR incorporation)” value [1] is on record?
A: Its value is “stimulates proliferation; also recorded: stimulate the proliferation; also recorded: stimulated cellular proliferation”.

Q: And the cell proliferation [2]?
A: Its cell proliferation is “neither cytokine is able to stimulate”.

Q: And the “cell proliferation ([3H]-TdR incorporation)” value [3]?
A: The value was “proliferate in response to”.
